Assay results: IntAct's records for PubMed 17350572

B1: Programmed cell death 6-interacting protein (Homo sapiens), Q8WUM4 (parent)
chain: MATFISVQLKKTSEVDLAKPLVKFIQQTYPSGGEEQAQYCRAAEELSKLRRAAVGRPLDKHEGALETLLRYYDQICSIEPKFPFSENQICLTFTWKDAFDKGSLFGGSVKLALASLGYEKSCVLFNCAALASQIAAEQNLDNDEGLKIAAKHYQFASGAFLHIKETVLSALSREPTVDISPDTVGTLSLIMLAQAQEVFFLKATRDKMKDAIIAKLANQAADYFGDAFKQCQYKDTLPKEVFPVLAAKHCIMQANAEYHQSILAKQQKKFGEEIARLQHAAELIKTVASRYDEYVNVKDFSDKINRALAAAKKDNDFIYHDRVPDLKDLDPIGKATLVKSTPVNVPISQKFTDLFEKMVPVSVQQSLAAYNQRKADLVNRSIAQMREATTLANGVLASLNLPAAIEDVSGDTVPQSILTKSRSVIEQGGIQTVDQLIKELPELLQRNREILDESLRLLDEEEATDNDLRAKFKERWQRTPSNELYKPLRAEGTNFRTVLDKAVQADGQVKECYQSHRDTIVLLCKPEPELNAAIPSANPAKTMQGSEVVNVLKSLLSNLDEVKKEREGLENDLKSVNFDMTSKFLTALAQDGVINEEALSVTELDRVYGGLTTKVQESLKKQEGLLKNIQVSHQEFSKMKQSNNEANLREEVLKNLATAYDNFVELVANLKEGTKFYNELTEILVRFQNKCSDIVFARKTERDELLKDLQQSIAREPSAPSIPTPAYQSSPAGGHAPTPPTPAPRTMPPTKPQPPARPPPPVLPANRAPSATAPSPVGAGTAAPAPSQTPGSAPPPQAQGPPYPTYPGYPGYCQMPMPMGYNPYAYGQYNMPYPPVYHQSPGQAPYPGPQQPSYPFPQPPQQSYYPQQ

Variants of: B1
Conditions: with sh3g1_human SH3GL1, Q99961
For R757A;P758A, the “effect of a mutation on the interaction” value was “decreasing interaction”.
